Measurements published in publication PMC11680790, “Structural and functional determination of peptide versus small molecule ligand binding at the apelin receptor” (Nature Communications, 2024).
Where a chain is given by its changes, count along the chain named.

Columns and labels:
[1] = target: T1, R/H168^4.64 variant apelin receptor (Homo sapiens, UniProt P35414, R168H); assay: Saturation radioligand binding, CHO-K1 membranes, R/H168^4.64; conditions: 90 min, room temperature, pH 7.4
T1 construct: expressed in transfected cells; host or cells: CHO-K1, transient, pcDNA3.1
T1 sequence (P35414 1-380 R168H): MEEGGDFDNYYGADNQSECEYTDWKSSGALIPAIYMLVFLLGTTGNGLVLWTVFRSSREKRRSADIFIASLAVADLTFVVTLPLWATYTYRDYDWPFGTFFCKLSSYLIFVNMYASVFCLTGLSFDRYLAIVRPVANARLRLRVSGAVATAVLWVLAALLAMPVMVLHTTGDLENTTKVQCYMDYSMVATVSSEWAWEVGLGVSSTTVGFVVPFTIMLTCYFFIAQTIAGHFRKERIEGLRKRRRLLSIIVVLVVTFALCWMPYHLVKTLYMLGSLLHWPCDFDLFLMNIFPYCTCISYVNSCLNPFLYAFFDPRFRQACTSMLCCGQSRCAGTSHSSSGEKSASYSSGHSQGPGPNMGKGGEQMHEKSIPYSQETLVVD
Procedure: (§1) The radiolabel has a specific activity of 2200 Ci/mmol. Plastic-ware used in radioligand binding experiments was coated with Sigmacote, a siliconising reagent that forms a covalent film to reduce sticking of the radiolabel.
(§2) Membrane protein preparations were made by harvesting CHO-K1 cells transiently transfected with wild-type or variant apelin receptor construct into tubes. Tubes were spun at 1000 xg for 10 min at 4 °C to pellet cells, before resuspending and triturating in ice-cold TRIS wash buffer (50 mM TRIS-HCl in deionised water, pH balanced to 7.4 at room temperature) to induce complete hypotonic lysis of cells. Cells were spun a second time at 21,000 × g for 20 min at 4 °C, to obtain a crude membrane fraction. […] Protein concentration of cell membrane preparations was determined using a DC Protein Assay (Bio-Rad), as per the manufacturer’s instructions.
(§3) For binding experiments, membrane preparations were diluted in binding buffer (50 mM TRIS-HCl and 5 mM MgCl2, balanced to pH 7.4 at room temperature) to give a final protein concentration of 1 mg/mL. […] Radioactivity in pellets was counted using a Cobra II model 5003 gamma counter (Packard).
(§4) Saturation binding data were analysed using the EBDA and LIGAND components of the KELL (Kinetic, EBDA, Ligand, Lowry) software package (Biosoft)[58] to generate receptor affinity (KD) and receptor density (Bmax) values. […]

[2] = target: T2, V/L38^1.42 variant apelin receptor (Homo sapiens, UniProt P35414, V38L); assay: Saturation radioligand binding, CHO-K1 membranes, V/L38^1.42; conditions: 90 min, room temperature, pH 7.4
T2 construct: expressed in transfected cells; host or cells: CHO-K1, transient, pcDNA3.1
T2 sequence (P35414 1-380 V38L): T1 sequence (P35414 1-380 R168H) with V38L, H168R
Procedure: as §1, §2, §3, §4

KD [1]: NBD | KD [2]: NBD
Structure (SMILES): CCCC[C@H](NC(=O)[C@@H]1CCCN1C(=O)CNC(=O)[C@H](CCCCN)NC(=O)[C@H](Cc1c[nH]cn1)NC(=O)[C@H](CO)NC(=O)[C@H](CC(C)C)NC(=O)[C@H](CCCNC(=N)N)NC(=O)[C@@H]1CCCN1C(=O)[C@H](CCCNC(=N)N)NC(=O)[C@@H]1CCC(=O)N1)C(=O)N1CCC[C@H]1C(=O)N[C@@H](Cc1ccc(O)c(I)c1)C(=O)O [[^125I]-apelin-13]
